In the assay the target is T1, Serine protease 1 (Bos taurus, UniProt P00760).
T1 sequence (P00760 whole entry): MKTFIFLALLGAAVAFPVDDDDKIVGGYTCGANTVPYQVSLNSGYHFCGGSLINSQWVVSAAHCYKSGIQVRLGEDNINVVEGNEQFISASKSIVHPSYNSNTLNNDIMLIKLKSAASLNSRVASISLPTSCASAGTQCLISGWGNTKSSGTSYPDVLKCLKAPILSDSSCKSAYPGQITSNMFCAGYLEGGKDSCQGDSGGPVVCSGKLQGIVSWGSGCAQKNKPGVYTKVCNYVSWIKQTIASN
As to the kind of experiment: Enzyme Inhibition Assay. The note with it: pH 7.5; 22 °C. Here is the method:
The enzyme activities were determined kinetically as the initial rate of cleavage of a peptide p-nitroanilide. Km for enzyme and substrate was determined using four substrate dilutions. Enzyme was incubated with test compounds for 10 min; the reaction was then started by the addition of the substrate. […] IC50 values for inhibitors were determined from the dose response curve by fitting the data to the Hill equation. Ki,app values were calculated as the IC50/2, with the IC50 value determined at a substrate concentration equal to Km

Broadly, the Ki is the dissociation constant of the complex between target and ligand, obtained from inhibition or displacement. A higher Ki goes with a looser hold on the target. `Cc1c(F)c(Oc2cccc(C(=N)N)c2)nc(Oc2cccc(C(=N)N)c2)c1F`: the Ki was 870 nM.

The values are drawn from BindingDB's records for doi:10.1107/s0907444999007350 (Berlex, 1999).
